The values that follow are results of earlier work, collected in patent EP1935424A1, “PHARMACEUTICAL COMPOSITIONS COMPRISING COMBINED ANTIDIABETIC SUBSTANCES FOR USE IN DIABETES MELLITUS” (ESPINOZA ABDALA, Leopoldo de Jesús, priority 2005, dated 2007).

The conditions of this data set: oral / gastrointestinal tract, in words.

For the compound `CN(CCOc1ccc(CC2SC(=O)NC2=O)cc1)c1ccccn1` (stereo not shown) [Rosiglitazone], the absorption entry is on record as “well absorbed orally”.
